Test system: testicular germ cell proliferation
Assay: Screen of SSC / differentiating spermatogonia receptor ligands in the iterative culture process
Type: cell-based, human
Conditions: ligand at the concentration listed in Table 5; effective to date at improving germ cell proliferation
Text: A process for identification and selection of receptor ligands capable of improving testicular germ cell proliferation was developed. The process uses expression data obtained by mining scRNA-seq data obtained from testicular tissue (FIG. 27). The process systematically prioritizes candidates for spermatogonia ligands through a series of bioinformatics analyses and filtering. The process comprises identifying and selecting potential ligands based on their receptor expression in State 1 SSCs (active stem cells) and State 2/3 differentiating spermatogonia (differentiated germ cells with strong proliferation ability), or any combination thereof.
More specifically, the approach was based on the single-cell RNA sequencing transcriptome profile of the adult human testis atlas (Guo, J., Grow, E. J., Mlcochova, H., Maher, G. J., Lindskog, C., Nie, X., Guo, Y., Takei, Y., Yun, J., Cai, L., et al. (2018). The adult human testis transcriptional cell atlas. Cell Research 28, 1141. 10.1038/s41422-018-0099-2; the disclosure of all of which is incorporated herein in its entirety), which provides a comprehensive characterization of cell types in the human adult testis. Pseudo-bulk RNA-seq analysis was used, which involves aggregating individual cells into groups to enhance the receptor gene expression signal on SSCs and differentiating spermatogonia. […]

B1: BMP2: ligand of BMPR1B/BMPR1A/BMPR2 (protein, UniProt P12643 283-396, looked up)
Bone morphogenetic protein 2: QAKHKQRKRLKSSCKRHPLYVDFSDVGWNDWIVAPPGYHAFYCHGECPFPLADHLNSTNHAIVQTLVNSVNSKIPKACCVPTELSAISMLYLDENEKVVLKNYQDMVVEGCGCR
For B1, the Effective was “Yes”.
